Test results reported in patent US11136409B2, “Compositions and methods for identification, assessment, prevention, and treatment of AML using USP10 biomarkers and modulators” (Dana-Farber Cancer Institute, Inc., priority 2016, dated 2021).

How the values were obtained:
[1] = tested on: Ba/F3-FLT3-ITD cells; assay: Proliferation of Ba/F3-FLT3-ITD cells; assay type: cell-based, murine
Source text: Nomo-1, P31-FUJ, and NB4 were obtained from Dr. Gary Gilliland. MV4, 11 cells were obtained from Dr. Anthony Letai. Hel, K562, THP, U937, TF-1 and K052 cells were purchased from the American Type Culture Collection (ATCC) (Manassas, Va., USA). […] Cell lines were submitted for cell line authentication and were authenticated within 6 months of manuscript preparation through cell line short tandem repeat (STR) profiling (DDC Medical, Fairfield, Ohio and Molecular Diagnostics Laboratory, Dana Farber Cancer Institute). […] PBMCs were generously provided by Dr. Steven Treon and Dr. Guang Yang.
The CellTiter-Glo® assay (Promega, Madison, Wis.) was used for proliferation studies and carried out according to manufacturer instructions. Cell viability is reported as percentage of control (untreated) cells, and error bars represent the standard error of the mean for each data point.

[2] = tested on: Ba/F3-FLT3-ITD cells expressing the TKD point mutations; assay: Growth of Ba/F3-FLT3-ITD cells expressing TKD point mutations; assay type: cell-based, murine; settings: approximately 24 hr treatment
[3] = tested on: HEK 293T cells; assay: FLT3 degradation in transfected HEK 293T cells; assay type: cell-based, human; settings: 24 h treatment
[4] = tested on: Ba/F3-FLT3-ITD, MOM13-luc+, and MOLM14 cells; settings: HBX19818 with midostaurin or crenolanib, fixed-ratio; CI less than 1 = synergy; 25-90% growth inhibition (50-90% for MOLM14)

CN(CCCNC(=O)c1ccc2nc3c(c(Cl)c2c1)CCCC3)Cc1ccccc1 [HBX19818, reference compound]
Therapeutic window compared to parental Ba/F3 cells [1]: ~2 fold | Potency against TKD point mutants versus Ba/F3-FLT3-ITD [2]: equipotent | Concentration needed for FLT3 degradation relative to mutant FLT3-driven cells [3]: approximately 2 fold | Combination index (CI) analysis [4]: synergistic anti-proliferative effects
